Experimental data reported in PubChem BioAssay AID1240 (Sanford-Burnham Center for Chemical Genomics, 2008).
The entries are a selection whose mix differs from that of the whole data set. Some tests of the compounds listed are not included; inactive here does not mean inactive elsewhere.

Chains of the proteins cited; added tags and fusions are not shown.
UniProt Q9HD36, whole entry: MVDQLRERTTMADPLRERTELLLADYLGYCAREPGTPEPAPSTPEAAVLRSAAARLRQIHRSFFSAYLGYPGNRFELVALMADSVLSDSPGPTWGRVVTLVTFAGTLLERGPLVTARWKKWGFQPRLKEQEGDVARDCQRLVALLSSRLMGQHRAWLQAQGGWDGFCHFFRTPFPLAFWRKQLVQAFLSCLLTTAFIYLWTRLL
UniProt P22736, whole entry partner: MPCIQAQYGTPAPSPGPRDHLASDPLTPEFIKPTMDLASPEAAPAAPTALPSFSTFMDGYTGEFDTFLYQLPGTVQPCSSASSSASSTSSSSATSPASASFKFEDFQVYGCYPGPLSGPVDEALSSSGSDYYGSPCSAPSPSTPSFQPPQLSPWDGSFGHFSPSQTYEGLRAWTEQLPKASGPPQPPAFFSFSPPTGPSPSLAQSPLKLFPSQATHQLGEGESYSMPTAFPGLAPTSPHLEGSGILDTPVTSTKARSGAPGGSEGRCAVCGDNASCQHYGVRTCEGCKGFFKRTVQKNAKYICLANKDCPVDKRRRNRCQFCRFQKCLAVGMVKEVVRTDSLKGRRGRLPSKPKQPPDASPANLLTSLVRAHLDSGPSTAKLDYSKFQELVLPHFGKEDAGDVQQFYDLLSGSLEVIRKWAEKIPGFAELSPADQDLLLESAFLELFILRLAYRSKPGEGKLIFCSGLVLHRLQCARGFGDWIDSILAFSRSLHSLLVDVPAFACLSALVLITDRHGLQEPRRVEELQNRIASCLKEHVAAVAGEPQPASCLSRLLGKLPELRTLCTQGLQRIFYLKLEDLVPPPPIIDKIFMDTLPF

Each compound was assayed against Bcl-2-like protein 10 (Homo sapiens) (UniProt Q9HD36) (assay: TR3 peptide-Bcl-B binding displacers, biochemical primary FP assay, phenotype converters (AID 1240;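 note: 0% = Bcl-B with tracer peptide and DMSO and 100% = tracer peptide lacking Bcl-B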)). Conditions: GST-Bcl-B / FITC-TR3 peptide fluorescence polarization; stronger effect = higher value; compound at 3.75 mg/L.

| SMILES | displacement [%] |
| --- | --- |
| COc1ccc(OC)c(C=C(C#N)C#N)c1 | 3.6 |
